# scFv variants of Ab-95 (light chain) against a SARS-CoV-2 spike peptide

Reference: Engelhart et al. 2022, doi:10.1038/s41597-022-01779-4. File: FLAb, binding data.

Target peptide (SARS-CoV-2 spike, HR2 region): PDVDLGDISGINAS

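The parent was found by panning a naive human phage display library on the peptide. The library (AAYL52) carries one to three amino acid substitutions per variant, with no insertions or deletions. Affinity was read by AlphaSeq, a pooled yeast mating assay with surface-displayed partners. Binding brings cells together so that they mate, and sequencing counts the barcode pairs among the diploids. Read counts were normalised to the haploid input and turned into Kd by a linear fit to BCL2-family pairs of known affinity, for each replicate. The assay was run in three technical replicates.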

The variants keep the heavy chain, the linker and the frameworks of Ab-95 (scFv order VH, three GGGGS repeats, VL).
VH: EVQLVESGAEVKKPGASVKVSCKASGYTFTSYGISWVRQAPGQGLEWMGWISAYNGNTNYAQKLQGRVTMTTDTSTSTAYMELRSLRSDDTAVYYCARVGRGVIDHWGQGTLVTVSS
VL: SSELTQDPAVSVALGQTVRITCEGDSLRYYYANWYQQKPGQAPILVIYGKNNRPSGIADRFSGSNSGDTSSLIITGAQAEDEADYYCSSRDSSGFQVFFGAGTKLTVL

Changes read parent residue, position, new residue, counted from the first residue of the VL shown.
Values are log10 of the apparent Kd in nM; lower means stronger binding.
An entry "ND" has no value in the source: the pair was not observed among the diploids in that replicate. This suggests poor binding but is not conclusive.
Nonspecific signal, from three strains lacking the peptide, appeared in 28% of pairings of library AAYL52, centred on 3.91 (5% of these signals below 2.90); values are not corrected for it. The control count says in how many pairings with the empty strains this scFv gave a signal, with their mean in brackets.

| changes | log10 Kd (nM) by replicate | empty controls |
|---|---|---|
| G24C+S26K+S92C | ND / 3.37 / ND | 2/9 (3.24) |
| D25F+S26R+Y30I | ND / ND / ND | 3/9 (3.71) |
| L27P+K50C+N51V | ND / 3.96 / 3.76 | 3/9 (3.79) |
| D25C+R28I+K50C | 3.81 / 3.60 / ND | 4/9 (4.33) |
| G24F+S89C+V97H | 3.34 / 3.25 / 2.89 | 4/9 (4.12) |
| G49M+S92M | ND / ND / ND | 0/9 |
| D25G+D91R+F95N | 4.10 / 3.32 / 2.60 | 7/9 (4.09) |
| S89R+S92H | 4.01 / 5.52 / 3.93 | 2/9 (4.10) |
| G24D+N52T+Q96F | 5.16 / 3.17 / 3.13 | 7/9 (3.60) |
| E23N+S26C+G49F | 2.37 / 2.88 / 2.00 | 4/9 (3.71) |
| D25I+N51E+F98N | 2.96 / 3.22 / 3.37 | 0/9 |
| Y31N+K50E+S89M | 1.78 / 2.43 / 1.44 | 1/9 (3.73) |
| L27V+A32M+Q96N | 4.31 / 3.25 / 3.08 | 4/9 (4.07) |
| E23D+G24Q+Y31L | 3.19 / ND / ND | 1/9 (3.16) |
| E23T+G49I+V97K | ND / ND / ND | 1/9 (3.70) |
| D25L+R90I+S92F | 2.52 / 4.04 / ND | 2/9 (3.89) |
| Y29K+N33G+F95I | 3.20 / 2.91 / 2.83 | 4/9 (3.59) |
| D25C+R90S+V97R | 5.69 / 3.51 / 3.79 | 2/9 (5.13) |
| N52C+D91S+F95K | 2.93 / 3.10 / 3.32 | 3/9 (3.77) |
| Y29S+S92H+Q96N | 1.78 / 1.69 / 1.49 | 1/9 (4.01) |
| S26N+S55I+S88L | ND / 4.00 / 4.03 | 1/9 (2.27) |
| R28D+G49K+D91S | 3.26 / 2.59 / 3.71 | 3/9 (4.22) |
| R53W+S93D | ND / 3.87 / ND | 3/9 (3.87) |
| D25I+S92G+F98N | 2.82 / 3.10 / 2.48 | 2/9 (3.99) |
| Y29H+A32H+V97Q | 4.35 / ND / 4.52 | 1/9 (3.81) |
| Y31N+F95R+F98E | 1.34 / 1.41 / 0.81 | 2/9 (4.04) |
| E23S+N33F+K50F | 4.91 / ND / 3.88 | 1/9 (3.33) |
| A32I+S88C+Q96P | 3.78 / 3.92 / 4.06 | 5/9 (4.33) |
| E23I+S55K+V97E | 2.48 / 2.78 / 2.21 | 4/9 (4.14) |
| R28W+K50L+Q96Y | 4.36 / 4.05 / 3.55 | 2/9 (3.39) |
| S26D+N52I | 2.45 / 2.81 / 3.71 | 1/9 (3.96) |
| Y29Q+N51T+F98T | 3.70 / 3.45 / 4.11 | 3/9 (3.79) |
| Y30D+G49D+S89Q | 3.25 / 3.66 / ND | 1/9 (3.56) |
| N33Q+K50R+V97L | 3.41 / ND / 4.95 | 4/9 (4.27) |
| N33A+R90C | 2.96 / 4.11 / 4.16 | 1/9 (5.29) |
| D25G+N52D+S93A | 2.69 / 3.46 / 3.58 | 3/9 (3.26) |

The closing 2 entries, repeated:

| changes | log10 Kd (nM) by replicate | empty controls |
|---|---|---|
| N33A+R90C | 2.96 / 4.11 / 4.16 | 1/9 (5.29) |
| D25G+N52D+S93A | 2.69 / 3.46 / 3.58 | 3/9 (3.26) |